Source: patent US7799799B2, “Indolizine derivatives, method for preparing same, and therapeutic compositions comprising same” (Sanofi-Aventis, priority 2005, dated 2010)

Assay: Solubility test at pH=4 from phosphate buffer pH 6 0.1M, by HPLC
Format: physicochemical
Procedure: The results for solubility, S, and pH are shown in the table below and are expressed in mg/ml.
A phosphate buffer, pH6, 0.1M, was prepared by adding 6.15 ml of 0.1M Na2HPO4 to 43.85 ml of 0.1M NaH2PO4. The solution was made up to 100 ml with filtered water using a Millipore system (trade mark).
Reference (Test Product in a Concentration in which the Latter is Soluble and which Acts as an Internal Reference)
About 0.2 mg (in a boat) was weighed out exactly and diluted in 1 ml of H2O/CH3CN: (50:50), i.e. 0.2 mg/ml, then the sample was subjected to ultrasound for 5 minutes.
About 4 mg (in a boat) was weighed out exactly and diluted in 400 μl (i.e. 10 mg/ml) of pH6 phosphate buffer (0.1M), then the sample was subjected to ultrasound for 5 minutes.
The pH was noted and if the pH was below 4, 1 μl of NaOH 1N was added (from 1 μl in 1 μl) until the pH was more than 4, then the pH was noted again. The solution (0.45 μm) was filtered then if necessary diluted with the phosphate buffer pH6. (If the product re-precipitated after diluting, the diluted sample was ignored, the mother solution was used and the solubility was determined at a wavelength other than λmax, to avoid saturating the signal.
The solubility of the compound was then determined by HPLC under the following conditions:
Instrument: Agilent 1100 chromatograph
Column temperature: 30° C. […]

Substance: 4-[3-(dipropylamino)propyl]phenyl}(2-isopropylindolizin-3-yl)methanone hydrochloride [compound 12]
- solubility, S (phosphate buffer pH 6 0.1M, HPLC, first figure of the S/pH cell, the pH of the sample is the second): 1200 µg/mL
- pH (of the solubility sample) (second figure of the S/pH cell, pH noted for the solubility sample): 4.3
